The highest values were mostly taken out for another list; the other results follow.
Molecular target: Bromodomain-containing protein 4 (Homo sapiens) (UniProt O60885)
Conditions: Compound concentration 20.0 uM, Protein concentration 2.0 uM, Result type QC Liability

## COc1ccccc1S(=O)(=O)Nc1ccc2c(c1)CN(C)C(=O)N2
  ΔTm: 5.16 °C

Reference: ChEMBL document CHEMBL5308504, “Tm Shift (DSF) assay results for EUbOPEN Chemogenomics Library” (2023)
